Values quoted from earlier work, collected in patent publication US20160000737A1, “TREATMENT OF PETS WITH SIRTUIN ACTIVATORS” (NUSIRT SCIENCES, INC., priority 2013, published 2016).

Details: directly excreted in the urine; cited from earlier work

For CN(C)C(=N)N=C(N)N [Metformin], the metabolism/excretion is listed as “not metabolised”.
